One assay addresses T1, rHCRTR2 (Rattus norvegicus, UniProt P56719).
T1 construct: expressed in transfected cells; host or cells: HEK293 (transient transfection, pCI-Neo vector), membrane preparation
Nature of the assay: Inhibition of [^3H]almorexant binding to HEK293-rHCRTR2 membranes. Particulars: [^3H]almorexant 0.5 nM, 37°C. The text has this: [^3H]almorexant binding to rat HCRTR1 and HCRTR2. The rat cDNAs encoding HCRTR1 (Accession No. P56718) and HCRTR2 (Accession No. P56719) were subcloned into pCI-Neo expression vectors (Promega, Madison, WI) and used to transfect HEK293 cells (acquired commercially from ATCC-LGC, Molsheim, France) as previously described. Membrane preparations, saturation and inhibition experiments, and determination of the association and dissociation kinetic parameters of [^3H]almorexant to rHCRTR2-HEK293 cell membranes were performed at F. Hoffmann-La Roche as previously described and reported in the Materials and Methods S1.
The potencies of almorexant and of the selective HCRTR1 antagonists SB-334867 [6] and SB-408124 [34] in inhibiting [^3H]almorexant binding to HEK293-rHCRTR1 and HEK293-rHCRTR2 cell membranes are given in Table 2. Almorexant was able to displace [^3H]almorexant binding from rHCRTR1 and rHCRTR2 membranes with high affinity (Table 2). In contrast, SB-334867 and SB-408124 displaced [^3H]almorexant binding from rHCRTR1, but not from rHCRTR2, with high affinity (Table 2).

Sequences of proteins named here, by UniProt entry; tags and fusion partners are left off.
UniProt P56719, whole entry: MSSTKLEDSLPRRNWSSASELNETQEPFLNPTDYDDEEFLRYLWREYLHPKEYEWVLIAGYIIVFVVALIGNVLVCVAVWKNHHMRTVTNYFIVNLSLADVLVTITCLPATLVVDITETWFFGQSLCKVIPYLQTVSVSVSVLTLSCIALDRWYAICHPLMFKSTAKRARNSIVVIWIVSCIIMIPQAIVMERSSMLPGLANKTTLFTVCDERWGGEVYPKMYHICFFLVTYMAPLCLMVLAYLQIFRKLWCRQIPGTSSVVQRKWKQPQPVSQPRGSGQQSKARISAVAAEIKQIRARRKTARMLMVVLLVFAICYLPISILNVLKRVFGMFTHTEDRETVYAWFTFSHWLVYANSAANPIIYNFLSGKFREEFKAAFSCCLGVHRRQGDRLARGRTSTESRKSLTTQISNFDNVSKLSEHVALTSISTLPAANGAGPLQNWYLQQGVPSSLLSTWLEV
UniProt P56718, whole entry: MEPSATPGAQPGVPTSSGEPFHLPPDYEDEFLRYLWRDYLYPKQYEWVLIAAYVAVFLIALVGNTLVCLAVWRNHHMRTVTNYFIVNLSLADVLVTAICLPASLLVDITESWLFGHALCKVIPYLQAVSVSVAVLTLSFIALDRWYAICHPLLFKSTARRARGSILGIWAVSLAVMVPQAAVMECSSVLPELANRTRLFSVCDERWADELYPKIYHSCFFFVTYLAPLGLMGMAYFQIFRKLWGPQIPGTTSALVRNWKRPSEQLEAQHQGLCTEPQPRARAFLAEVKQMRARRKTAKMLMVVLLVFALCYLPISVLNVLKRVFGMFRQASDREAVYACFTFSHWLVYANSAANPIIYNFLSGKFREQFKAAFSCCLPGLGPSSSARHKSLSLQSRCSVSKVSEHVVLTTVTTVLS

In assay [1] the target is T2, rHCRTR1 (Rattus norvegicus, UniProt P56718).
T2 construct: expressed in transfected cells; host or cells: HEK293 (transient transfection, pCI-Neo vector), membrane preparation
Nature of the assay: Inhibition of [^3H]almorexant binding to HEK293-rHCRTR1 membranes. The following applies: [^3H]almorexant 3.4 nM, 23°C. The text has this: The rat cDNAs encoding HCRTR1 (Accession No. P56718) and HCRTR2 (Accession No. P56719) were subcloned into pCI-Neo expression vectors (Promega, Madison, WI) and used to transfect HEK293 cells (acquired commercially from ATCC-LGC, Molsheim, France) as previously described.

For assay [2], the target named is T2, rHCRTR1. On the set-up: method as in PMID 14691055. Particulars: cited from earlier work.

Where two headings read alike, the source gives them in different places.

In publication PMC3388080 (PLoS ONE, 2012) one finds Ki data, which are given here for one compound.

One may read the Ki as the equilibrium dissociation constant of an inhibitor or competing ligand from its target.

For `Cc1nc2ccc(NC(=O)Nc3ccnc4cccnc34)cc2o1.Cl` [SB-334867, 1-(2-methylbenzoxazol-6-yl)-3-[1], [5]naphthyridin-4-yl-urea hydrochloride], the figures for the inhibitory constant (Ki) at rHCRTR2, on rHCRTR1 [1] and on rHCRTR1 [2] were 2390 ± 81 nM, 58.4 ± 2.9 nM and 38.7 nM, respectively.
